The subject of one data set is Myzus persicae Sulzer. Particulars: positive control at 40 μg/mL.

Consider `CN1COCN(Cc2cnc(Cl)s2)/C1=N\[N+](=O)[O-]`, for which, in the data set with Myzus persicae Sulzer (24 h), the “Corrected Mortality Rate (%) M. persicae 24 h” value was found to be 70.01%. Besides, in the data set with Myzus persicae Sulzer (48 h), the “Corrected Mortality Rate (%) M. persicae 48 h” value came to 94.12%.

Flunicotamid: the LC50 with Rhopalosiphum padi (R. padi) was 10.83 µg/mL. Moreover, the “Corrected Mortality Rate (%) R. padi 48 h” value with Rhopalosiphum padi (positive control at 40 μg/mL, 48 h) turned out to be 93.23%.

The LC50 is the concentration that kills 50% of the test population. The low end stands for greater toxicity, the high end for lower toxicity.

The values above are taken from article PMC10305189, “Synthesis, Bioactivity and Molecular Docking of Nereistoxin Derivatives Containing Phosphonate” (2023).
